By UniProt entry, the sequences of proteins in these tests, tags left out. Residues count along the entry.
UniProt O15496, 43-165 limits assumed: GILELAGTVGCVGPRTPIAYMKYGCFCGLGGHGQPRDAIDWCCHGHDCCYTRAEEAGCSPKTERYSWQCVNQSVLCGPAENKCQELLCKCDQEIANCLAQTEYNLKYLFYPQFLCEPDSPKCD

In patent publication US20040102442A1, “Remedies for alzheimer's disease” (priority 2000, published 2004):

Molecular target: Human type-X sPLA2 (Homo sapiens, UniProt O15496)
Assay: type-X sPLA2 inhibition test (chromogenic assay, diheptanoylthio PC)
Conditions: diheptanoylthio PC 1 mM, Triton X-100 0.3 mM, 30 min at 40° C., absorbance at 405 nm

IC50: 5 nM
SMILES: NC(=O)C1=CCCc2c1c1c(OCC(=O)O)cccn1c2Cc1ccccc1
